The numbers were not newly measured in US11639530B2, “CD133 related to anticancer agent resistance in colon cancer and use thereof” (KOREA UNIVERSITY RESEARCH AND BUSINESS FOUNDATION, priority 2019, dated 2023), which cites them from elsewhere.

This data set relates to certain types of cancer in which EGFR downstream signaling molecules including KRAS are activated. Particulars: cancers with activated EGFR downstream signaling molecules including KRAS; cited from earlier work.

As for `COc1cc2ncnc(Nc3ccc(F)c(Cl)c3)c2cc1OCCCN1CCOCC1` [gefitinib], the gefitinib efficacy result was “insignificant”.
